In patent publication US20240217978A1 (CHONG KUN DANG PHARMACEUTICAL CORP., priority 2021, published 2024):

Target: human adenosine A2a receptor (Homo sapiens (Human), UniProt P29274)
Test: A2a receptor binding affinity, [3H]-NECA radioligand binding test
Conditions: read-out: binding affinity IC50 for the human adenosine A2a receptor; [3H]-NECA 37 nM; membrane from HEK-293 cells transfected with human adenosine A2a receptor
Description: The binding affinity of the compounds according to Examples of the present invention to the human adenosine A2a receptor was evaluated by entrusting SB drug discovery in the UK.
A radioligand binding test was conducted by using [3H]-NECA (5′-N-[adenine-2,8-3H]-ethylcarboxamidoadenosine) and an adenosine A2a membrane. As the adenosine A2a membrane, a cell membrane prepared from HEK-293 cells transfected with human adenosine A2a receptor was used. The membrane used for the test was prepared by incubating with a radioligand until equilibrium was reached. In order to separate the radioligand-bound membrane, the unbound radioligand was separated by using Packard filtermate Harverster and glass filter plates.
10 μL of test compound dissolved in binding buffer (50 mM Tris, 10 mM MgCl2, 1 mM EDTA pH 7.4) and 20 μL of [3H]-NECA (final concentration of 37 nM) or reference inhibitor was mixed with 20 μL of A2a membrane in an unbound 96-well plate and incubated at room temperature for one hour. Prior to filtration, a 96-well harvest filter plate was coated with 0.33% polyethylenimine for 30 minutes and then washed with assay buffer. The binding reaction was transferred to the filter plate and washed three times with wash buffer. The dish was then dried, scintillant was added, and radioactivity was counted in a scintillation counter (Topcount NXT, Packard). […]

Work on `COCCN1CCN(C(=O)[C@@H]2CCCN2c2cc3nc(-c4ccco4)nn3c(N)n2)CC1` yielded an IC50 of 34 nM.
